Data on one molecule can be found in patent US20210324028A1 (Pfizer, published 2021).

Amino acid sequences for entries named in this document (tags omitted). Residues count along the entry.
UniProt Q15116, 25-167 limits assumed: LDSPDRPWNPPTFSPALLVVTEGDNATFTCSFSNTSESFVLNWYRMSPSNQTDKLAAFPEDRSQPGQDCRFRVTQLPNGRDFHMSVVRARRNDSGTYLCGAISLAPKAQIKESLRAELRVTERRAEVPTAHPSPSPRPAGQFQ

The assay addresses T1, human PD-1 (human, UniProt Q15116 25-167, limits assumed).
T1 construct: also called hPD-1
Briefly: SPR. (In SPR one partner is held on a chip, and binding of the other changes the refractive index at the surface.)

B1: xhPD1-hIL15 NQ mutant (other)
heavy 1: not shown
heavy 2: not shown
light: DIQMTQSPSSLSASVGDRVTITCKSSQSLWDSGNQKNFLTWYQQKPGKAPKLLIYWTSYRESGVPSRFSGSGSGTDFTLTISSLQPEDFATYYCQNDYFYPLTFGGGTKVEIKRTVAAPSVFIFPPSDEQLKSGTASVVCLLNNFYPREAKVQWKVDNALQSGNSQESVTEQDSKDSTYSLSSTLTLSKADYEKHKVYACEVTHQGLSSPVTKSFNRGEC
In general, Kd refers to the concentration at which binding is half-saturated. In general, koff refers to the first-order rate constant of dissociation. For orientation: kon means the second-order rate constant of association. Higher therefore signals fast association. On to B1, for which the Kd came to 3.44 nM, the koff is 0.000596 s⁻¹, the kon was 173000 M⁻¹ s⁻¹ and the t1/2 came to 19.4 min.
